The text below walks through data of patent US11420944B2, “Voltage-dependent t-type calcium channel blocker” (Nippon Chemiphar Co., Ltd., priority 2016, dated 2022).

Amino acid sequences for entries named in this document (tags omitted).
UniProt O95180, whole entry: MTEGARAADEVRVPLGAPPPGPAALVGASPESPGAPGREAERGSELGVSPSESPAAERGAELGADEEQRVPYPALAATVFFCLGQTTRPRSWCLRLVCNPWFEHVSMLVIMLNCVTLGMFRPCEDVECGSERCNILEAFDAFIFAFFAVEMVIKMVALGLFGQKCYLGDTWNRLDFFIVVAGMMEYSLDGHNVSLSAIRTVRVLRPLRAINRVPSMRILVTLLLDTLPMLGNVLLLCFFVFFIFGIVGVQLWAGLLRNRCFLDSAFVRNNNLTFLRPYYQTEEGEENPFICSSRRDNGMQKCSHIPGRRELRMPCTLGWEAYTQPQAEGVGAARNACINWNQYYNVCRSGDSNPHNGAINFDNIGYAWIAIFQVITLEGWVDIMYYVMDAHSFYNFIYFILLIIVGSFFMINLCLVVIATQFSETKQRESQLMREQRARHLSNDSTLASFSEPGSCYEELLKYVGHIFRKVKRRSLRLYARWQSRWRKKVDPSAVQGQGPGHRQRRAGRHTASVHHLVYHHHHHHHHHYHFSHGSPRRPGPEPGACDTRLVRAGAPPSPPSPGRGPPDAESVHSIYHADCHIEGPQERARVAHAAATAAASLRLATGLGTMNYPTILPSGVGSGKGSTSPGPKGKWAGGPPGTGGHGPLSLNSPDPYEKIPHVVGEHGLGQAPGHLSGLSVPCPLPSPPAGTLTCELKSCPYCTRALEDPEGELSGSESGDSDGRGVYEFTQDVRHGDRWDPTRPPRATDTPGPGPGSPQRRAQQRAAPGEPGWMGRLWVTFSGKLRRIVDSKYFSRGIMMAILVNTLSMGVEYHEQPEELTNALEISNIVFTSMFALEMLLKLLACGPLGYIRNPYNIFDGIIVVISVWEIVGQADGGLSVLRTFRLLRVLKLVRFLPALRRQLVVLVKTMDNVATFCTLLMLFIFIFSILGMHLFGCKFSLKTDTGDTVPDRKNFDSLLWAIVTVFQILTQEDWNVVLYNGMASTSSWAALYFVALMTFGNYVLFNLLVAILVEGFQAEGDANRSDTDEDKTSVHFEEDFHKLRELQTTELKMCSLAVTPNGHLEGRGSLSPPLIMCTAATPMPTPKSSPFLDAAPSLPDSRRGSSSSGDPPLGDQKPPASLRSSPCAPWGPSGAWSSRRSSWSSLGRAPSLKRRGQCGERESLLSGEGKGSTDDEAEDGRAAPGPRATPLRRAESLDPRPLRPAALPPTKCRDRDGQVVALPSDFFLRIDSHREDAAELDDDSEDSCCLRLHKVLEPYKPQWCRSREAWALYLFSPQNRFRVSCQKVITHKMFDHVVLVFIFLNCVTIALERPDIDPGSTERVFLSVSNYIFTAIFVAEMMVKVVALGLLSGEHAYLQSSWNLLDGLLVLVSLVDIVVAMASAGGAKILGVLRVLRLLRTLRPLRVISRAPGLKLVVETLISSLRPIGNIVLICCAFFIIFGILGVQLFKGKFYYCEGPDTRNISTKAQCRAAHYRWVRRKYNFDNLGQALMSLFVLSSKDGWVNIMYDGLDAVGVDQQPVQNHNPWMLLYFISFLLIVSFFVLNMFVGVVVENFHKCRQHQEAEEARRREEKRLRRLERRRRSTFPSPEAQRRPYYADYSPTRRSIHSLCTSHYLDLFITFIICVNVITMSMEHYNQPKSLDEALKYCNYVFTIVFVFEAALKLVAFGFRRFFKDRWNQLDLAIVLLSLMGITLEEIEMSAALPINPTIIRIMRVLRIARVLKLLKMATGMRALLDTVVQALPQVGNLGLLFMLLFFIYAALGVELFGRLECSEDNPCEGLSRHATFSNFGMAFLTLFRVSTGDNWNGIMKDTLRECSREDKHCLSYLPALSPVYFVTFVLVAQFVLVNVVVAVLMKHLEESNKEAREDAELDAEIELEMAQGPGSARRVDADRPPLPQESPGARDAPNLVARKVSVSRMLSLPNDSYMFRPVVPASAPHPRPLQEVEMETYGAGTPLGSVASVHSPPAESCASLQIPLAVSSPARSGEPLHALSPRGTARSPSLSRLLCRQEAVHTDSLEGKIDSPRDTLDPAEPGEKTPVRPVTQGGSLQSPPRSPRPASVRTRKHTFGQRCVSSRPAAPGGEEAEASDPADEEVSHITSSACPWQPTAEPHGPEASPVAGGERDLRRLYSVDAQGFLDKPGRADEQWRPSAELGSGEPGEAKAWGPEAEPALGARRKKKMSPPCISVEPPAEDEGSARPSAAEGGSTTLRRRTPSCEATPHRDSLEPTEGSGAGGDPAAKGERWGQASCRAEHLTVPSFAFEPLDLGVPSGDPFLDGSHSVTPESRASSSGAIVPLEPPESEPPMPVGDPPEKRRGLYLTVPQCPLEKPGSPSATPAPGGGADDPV

The target of this experiment is human Cav3.2 channels (Homo sapiens, UniProt O95180). As to the kind of experiment: Intracellular calcium concentration measurement (Fluo-4 AM) in stable cells expressing human Cav3.2 channels, buffer A / buffer B. To be noted: read-out: Inhibitory action of buffer A (inactivated state), Tables 2 to 6, equilibrium potential of potassium −92 mV. From the text:
Construction of Stable Cells Expressing Human Cav3.2 Channels
(1) A sequence produced by incorporating HindIII site and kozak sequence (GCCACC) into the 5′-terminal side of human Cav3.2 channel ORF (Open Reading Frame) gene and incorporating Kpnl site into the 3′-terminal side was incorporated into pcDNA3.1(+) (Thermo-Fisher Scientific, Inc., #V790-20), and the plasmid was transfected into HEK293 cells (ATCC No. CRL-1573) according to the protocol of FuGENE (registered trademark) HD Transfection Reagent (PROMEGA #E2311).
(2) Method for Measuring Intracellular Calcium Concentration […]
Stable cell line expressing human Cav3.2 channels, which had been produced in (1), was seeded in a 96-well plate using DMEM medium including 10% FBS, and the cells were cultured for 48 hours under the conditions of 37° C. and 5% CO2. Subsequently, the medium was removed, and various wells that had been washed with a base buffer were treated with 80 μL of a fluorescent dye solution containing a mixed liquid of 22 μg of calcium fluorescence indicator Fluo-4 AM (Dojindo Laboratories Co., Ltd., #F311), 20 μL of DMSO, […] of 10% Pluronic F-127 (Thermo-Fisher Scientific, Inc., #P6866), and 4 mL of a base buffer. […] The cells were left to stand for another 15 minutes at room temperature in the dark, and the cells were analyzed using the following method using a microplate reader, EnVision (PerkinElmer, Inc.). […]

In the case of `C[C@@H](NC(=O)C1CC1c1nc2ccccc2o1)c1cnc(OCC(F)(F)F)s1` (single isomer, unassigned), the IC50 was 1 to 10 µM.
